The target in this test is T1, extracellular domain (ECD) of human MPL (Homo sapiens, UniProt P40238).
T1 construct: made in house; host or cells: 293FT cells, conditioned medium used unpurified
The experiment in a line: NLuc assay to detect CAR: binding of MPL-ECD-GGSG-NLuc-AcV5 supernatant to CAR-expressing cells. As to conditions: transiently transfected 293FT cells. The text has this: A frequent problem in the field of chimeric antigen receptors is lack of a sensitive and specific assay that can detect cells that express chimeric antigen receptors. To detect the expression of CAR targeting CD19 and MPL, we fused the extracellular domains (ECD) of human CD19 and human MPL, including their signal peptides, in frame with nucleotide sequence encoding a Gly-Gly-Ser-Gly linker, NLuc (without a secretory signal) and an AcV5 epitope tag. In the case of CD19 construct, a FLAG tag was inserted between the signal peptide and the beginning of the extracellular domain. The whole cassette was cloned downstream of the human EF1α promoter into the lentiviral vector pLenti-EF1 to make constructs pLenti-EF1-FLAG-CD19-ECD-GGSG-NLuc-AcV5 and pLenti-EF1-MPL-ECD-GGSG-NLuc-AcV5, respectively. The nucleic acid sequences of the insert fragments are provided in SEQ ID NO: 926 and SEQ ID NO: 925, respectively. The protein sequences of the insert fragments are provided in SEQ ID NO: 2671 and SEQ ID NO: 2670, respectively. The constructs were transfected into 293FT cells by calcium phosphate co-precipitation method. Approximately 20 h post-transfection, the cell culture media was replaced with fresh medium. The conditioned media containing the secreted FLAG-CD19-ECD-GGSG-NLuc-AcV5 (also referred to as CD19-GGSG-NLuc-AcV5) and MPL-ECD-GGSG-NLuc-AcV5 (also referred to as MPL-GGSG-NLuc-AcV5) proteins was collected 48-72 h later.
Next day morning, approximately 18 hours post-transfection, cells were collected by pipetting up and down in 1.5 ml tubes. The tubes were spun down at 1500 RPM for 5 minutes. Then the cells were washed once with wash buffer (1% FBS in PBS), followed by incubation with 1001 of indicated secretory forms of GGS NLuc supernatants. The cells were incubated at 4° C. for 1 hour.
After the incubation, cells were washed 5 times with wash buffer (1 ml each wash). Finally the pellet was resuspended in 200 μl wash buffer. Resuspended cells were placed in a 384 well plate in triplicate (25 μl each). Luciferase activity was measured using a BioTek synergy H4 plate reader after addition of NLuc assay buffer (Promega) containing native coelenterazine (25 μl each well) directly to each well (one at a time).
T cells expressing the different MPL CAR constructs were incubated with MPL-GGSG-NLuc-AcV5 and CD19-GGSG-NLuc-AcV5 supernatants and after extensive washes assayed for NLuc activity essentially as described in the preceding example.

Here are results for two molecules from patent US20240166755A1, “CHIMERIC ANTIGEN RECEPTORS TARGETING CANCER” (University of Southern California, priority 2016, published 2024).

B1: mTPO-(1-187)-Myc-CD28z-T2A-PAC(031915-V03): CAR targeting MPL: receptor binding domain of mouse thrombopoietin fused to CD28 and CD3z domains (protein)
chain: MELTDLLLAAMLLAVARLTLSSPVAPACDPRLLNKLLRDSHLLHSRLSQCPDVDPLSIPVLLPAVDFSLGEWKTQTEQSKAQDILGAVSLLLEGVMAARGQLEPSCLSSLLGQLSGQVRLLLGALQGLLGTQLPLQGRTTAHKDPNALFLSLQQLLRGKVRFLLLVEGPTLCVRRTLPTTAVPSSTSTREQKLISEEDLKIEVMYPPPYLDNEKSNGTIIHVKGKHLCPSPLFPGPSKPFWVLVVVGGVLACYSLLVTVAFIIFWVRSKRSRLLHSDYMNMTPRRPGPTRKHYQPYAPPRDFAAYRSRVKFSRSADAPAYQQGQNQLYNELNLGRREEYDVLDKRRGRDPEMGGKPRRKNPQEGLYNELQKDKMAEAYSEIGMKGERRRGKGHDGLYQGLSTATKDTYDALHMQALPPRSSGSGEGRGSLLTCGDVEENPGPHMTEYKPTVRLATRDDVPRAVRTLAAAFADYPATRHTVDPDRHIERVTELQELFLTRVGLDIGKVWVADDGAAVAVWTTPESVEAGAVFAEIGPRMAELSGSRLAAQQQMEGLLAPHRPKEPAWFLATVGVSPDHQGKGLGSAVVLPGVEAAERAGVPAFLETSAPRNLPFYERLGFTVTADVEVPEGPRTWCMTRKPGA
modifications: listed as DNA
Take B1: the “binding to MPL-ECD-GGSG-NLuc-AcV5 (NLuc assay)” value is “modest binding”.

B2: hTPO-(1-187)-Myc-CD28z-T2A-PAC(031915-U04): CAR targeting MPL: receptor binding domain of human thrombopoietin fused to CD28 and CD3z domains (protein)
chain: MELTELLLVVMLLLTARLTLSSPAPPACDLRVLSKLLRDSHVLHSRLSQCPEVHPLPTPVLLPAVDFSLGEWKTQMEETKAQDILGAVTLLLEGVMAARGQLGPTCLSSLLGQLSGQVRLLLGALQSLLGTQLPPQGRTTAHKDPNAIFLSFQHLLRGKVRFLMLVGGSTLCVRRAPPTTAVPSRTSTREQKLISEEDLKIEVMYPPPYLDNEKSNGTIIHVKGKHLCPSPLFPGPSKPFWVLVVVGGVLACYSLLVTVAFIIFWVRSKRSRLLHSDYMNMTPRRPGPTRKHYQPYAPPRDFAAYRSRVKFSRSADAPAYQQGQNQLYNELNLGRREEYDVLDKRRGRDPEMGGKPRRKNPQEGLYNELQKDKMAEAYSEIGMKGERRRGKGHDGLYQGLSTATKDTYDALHMQALPPRSSGSGEGRGSLLTCGDVEENPGPHMTEYKPTVRLATRDDVPRAVRTLAAAFADYPATRHTVDPDRHIERVTELQELFLTRVGLDIGKVWVADDGAAVAVWTTPESVEAGAVFAEIGPRMAELSGSRLAAQQQMEGLLAPHRPKEPAWFLATVGVSPDHQGKGLGSAVVLPGVEAAERAGVPAFLETSAPRNLPFYERLGFTVTADVEVPEGPRTWCMTRKPGA
modifications: listed as DNA
In the case of B2, the “binding to MPL-ECD-GGSG-NLuc-AcV5 (NLuc assay)” value is “modest binding”.
